Tested on: Human Jurkat T-cells (clone N)
Assay: Jurkat T-cell activation (anti-TCR, CD69 upregulation)
Assay type: cell-based
Conditions: read-out: Jurkat CD69 IC50

IC50: 348 nM
Compound: CNC(=O)COc1cccc(Nc2ncc(F)c(Nc3ccc4c(c3)NC(=O)C(C)O4)n2)c1 (stereo not shown)

Reference: patent US8158621B2
